The assay can be described thus: NCI Yeast Anticancer Drug Screen. Data for the rad50EPP+ strain (AID 151).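 Note: 0% = growth of vehicle-treated control cultures.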 The note with it: S. cerevisiae rad50 mutant strain, hits give high values. The protocol:
Growth inhibition of yeast strains with defined genetic alterations is measured as a screen for potential anti-cancer activity. Selected strains with alterations in DNA damage repair or cell cycle control were exposed to compounds and growth inhibition was measured relative to vehicle treated controls. The strain used in this assay is rad50EPP+

Molecules are shown by their SMILES. Only a part is listed here, and it is no random draw. The source holds several records for some structures; these can differ, active in one and inactive in another. The source made the active and inactive calls. Cut-off read from the data, not from the text of the source: active = growth inhibition above about 70%; inactive = the rest.

Experimental findings from PubChem BioAssay (NCI) are described below.

As for `CN(C)P(=O)(N(C)C)n1c(Nc2ccccc2)nnc1-c1ccccc1`, the growth inhibition runs as follows: (at 1.2 µM) inactive: -30%; (at 3.7 µM) inactive: -16%; (at 11.0 µM) inactive: -21%; (at 33.0 µM) inactive: -4%; (at 100.0 µM) inactive: -13%.
As for `FC1(F)SC2C(C1(F)F)C1(Cl)C(Cl)=C(Cl)C2(Cl)C1(Cl)Cl` (stereo not given), the growth inhibition is inactive: 39% (at 1.2 µM); active: 89% (at 3.7 µM); active: 99% (at 11.0 µM); active: 99% (at 33.0 µM); active: 98% (at 100.0 µM).
With `O=[N+]([O-])c1cc([N+](=O)[O-])c2nsnc2c1`, the growth inhibition is inactive: 31% (at 1.2 µM); inactive: 68% (at 3.7 µM); active: 99% (at 11.0 µM); active: 99% (at 33.0 µM); active: 99% (at 100.0 µM).
On to `N#Cc1cc([N+](=O)[O-])cc([N+](=O)[O-])c1N`, for which the growth inhibition is inactive: 14% (at 1.2 µM); inactive: 18% (at 3.7 µM); inactive: 18% (at 11.0 µM); inactive: 32% (at 33.0 µM); inactive: 48% (at 100.0 µM).
With `O=C1OC(C(Cl)(Cl)Cl)Sc2ccccc21` (stereo not given), the growth inhibition (at 1.2 µM) is inactive: 1%; the growth inhibition (at 3.7 µM) is inactive: 6%; the growth inhibition (at 11.0 µM) is inactive: 13%; the growth inhibition (at 33.0 µM) was inactive: 46%; the growth inhibition (at 100.0 µM) is inactive: 59%.
Turning to `NC(Cc1cnc[nH]1)C(=O)O` (stereo not given), the growth inhibition by setting is: (at 1.2 µM) inactive: 0%; (at 3.7 µM) inactive: 9%; (at 11.0 µM) inactive: 53%; (at 33.0 µM) active: 96%; (at 100.0 µM) active: 97%.
With `COc1cccc(C[N+](C)(CCCl)CCCl)c1[N+](=O)[O-]`, the growth inhibition was inactive: 29% (at 1.2 µM); inactive: 42% (at 3.7 µM); inactive: 68% (at 11.0 µM); active: 94% (at 33.0 µM); active: 97% (at 100.0 µM).
Take `CC(C)c1nc(Nc2ccccc2)n(P(=O)(N(C)C)N(C)C)n1`: the growth inhibition by setting is: (at 1.2 µM) inactive: -13%; (at 3.7 µM) inactive: 16%; (at 11.0 µM) inactive: -34%; (at 33.0 µM) inactive: -36%; (at 100.0 µM) inactive: -24%.
